Screening data as filed in PubChem BioAssay.
miR-122 sensor: blocks miR-122 activity in Huh7 sensor cells | activation (reporter increase), % at 12.5 µM | Huh7 miR-122 Renilla luciferase sensor, 48 h; neutral wells = 0, positive control = 100 | 340,000 compounds, 0.3% hits;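 active = mean replicate activation score at least 90 and every replicate individually at or above 90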;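 note: higher luciferase means less miR-122 activity so hits act as miR-122 inhibitors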
esBAF inh: SWI/SNF esBAF complex inhibition; mouse ES cells, Bmi1-luciferase knock-in reporter, 24 h; 100% = twice the neutral-well signal; reporter increase, % at 12.5 µM; 350,000 compounds, 2% hits; in the data active = activation above about 40%;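 note: a rise in the Bmi1 reporter signal indicates esBAF inhibition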
Yeast UUG start-1: alters start codon recognition fidelity in yeast. S. cerevisiae UUG-firefly luciferase reporter, luminescence/redox ratio. activity score, % at 18.7 µM. 0.13% of 350,000 active. AID 602363;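 active = replicate mean at a twofold rise or more, about +100% in these data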;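 also: firefly luciferase made from a UUG start codon reports start codon fidelity; reporter light over untreated wells divided by growth signal over untreated wells; some hits fall short of that in this replicate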
PglD inh: blocks C. jejuni PglD acetyltransferase activity; purified PglD enzyme, DTNB colorimetric CoA detection; inhibition, % at 12.5 µM; 360,000 compounds, 0.098% hits; in the data active = inhibition above about 16%, passing the limit was not always enough
MITF TRPM1 HTS: MITF TRPM1 promoter activation in melanoma cells; 300,000 compounds, 0.75% hits; SK-MEL-5 TRPM1-promoter luciferase, 24 h; % of positive control, neutral wells = 0; activation, % at 12.5 µM;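 active = mean activation of at least 80% with every replicate also reaching 80%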
Wnt bcat act: Wnt/beta-catenin pathway activation; Wnt/beta-catenin reporter cell assay, activator, plate reader; activation, % at 9.35 µM; 300,000 compounds, 1.2% hits; in the data active = activation above about 30%, passing the limit was not always enough
Yeast UUG start-2: yeast start codon fidelity modulation; shares compounds with Yeast UUG start-1; S. cerevisiae UUG-start firefly luciferase, luminescence, 4 h; 100% means double the DMSO signal; activation, % at 38 µM; 540 tested, under 10 active;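 active = signal increase whose fitted curve reaches an absolute level of 40 at a concentration under 10 µM; inactive = activity opposite to the expected increase, or the rest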
A number is an active result; - = inactive; . = no result given; ! = repeats disagree. The list is not random: actives were taken first. Their share in the collection is about 2.8%.

SMILES	miR-122 sensor	esBAF inh	Yeast UUG start-1	PglD inh	MITF TRPM1 HTS	Wnt bcat act	Yeast UUG start-2
C[C@@H]1CCCCO[C@H](CN(C)CC2CCCCC2)[C@@H](C)CN([C@H](C)CO)C(=O)c2cc(NS(=O)(=O)c3cn(C)cn3)ccc2O1	-	-	-	-	.	.	.
CC(C)NC(=O)Nc1cccc2c1O[C@H](CN(C)Cc1ccc(C(=O)O)cc1)[C@H](C)CN([C@H](C)CO)C2=O	-	-	131.8	-	.	.	-
CCN(CC)c1ccc(-c2nc3cnccn3c2NC2CCCC2)cc1	-	-	181.3	-	-	-	-
c1cn2c(NC3CCCCC3)c(-c3ccc(SC4CCCCC4)cc3)nc2cn1	-	-	-	-	-	-	.
CC(C)(C)C(=O)COC(=O)c1ccc(O)cc1	-	-	387.0	-	-	-	-
Cc1ccc(C)c(N2C(=N)S/C(=C\c3ccc(-c4ccccc4C(=O)O)o3)C2=O)c1	-	-	113.1	-	-	-	-
COc1ccc2oc(C(=O)OCC(=O)NCc3ccc(OC)c(OC)c3)c(C)c2c1	-	-	-	-	-	-	-
COc1ccc2oc(C(=O)OCC(=O)NC(C)c3ccccc3)c(C)c2c1 (centres undefined)	.	.	-	-	-	-	-
COc1ccc2oc(C(=O)OCC(=O)Nc3ccccc3)c(C)c2c1	-	.	-	-	-	-	.
COc1ccc2oc(C(=O)OCC(=O)N(C)Cc3ccccc3)c(C)c2c1	.	-	-	-	-	-	-
CO[C@H]1CN(C)C(=O)c2cc(NC(=O)c3ccc(F)cc3)ccc2OC[C@H](C)N(C(C)=O)C[C@H]1C	-	-	-	-	.	.	.
CCN(CC)S(=O)(=O)c1ccc(C)c(NC(=O)COC(=O)C=C(C)C)c1	-	-	179.6	-	-	-	-
CCOc1ncccc1C(=O)OCC(=O)Nc1cc(S(=O)(=O)N(CC)CC)ccc1C	-	.	.	.	-	-	.
C[C@H]1CN([C@@H](C)CO)C(=O)c2cc(C3=CCCC3)cnc2O[C@@H]1CN(C)C(=O)Nc1ccccc1	-	-	-	-	.	.	.
CCN(CC)CC#CC(O)(c1ccccc1)c1ccccc1	.	.	.	.	-	-	-
CCN(CC)CC#CCC(OC)(c1ccccc1)c1ccccc1	.	.	.	.	-	-	-
CCN(CC)CC#CCC(O)(c1ccccc1)C1CCCC1 (centres undefined)	-	-	-	-	-	-	.
Cc1noc(C)c1S(=O)(=O)Nc1ccc2c(c1)CC(=O)N([C@@H](C)CO)C[C@H](C)[C@@H](CN(C)S(=O)(=O)c1ccc(F)cc1)O2	-	-	-	-	.	.	.
O=C(Cc1cccc2ccccc12)NCC(=O)N1CCN(Cc2cccc(C(F)(F)F)c2)CC1	-	-	116.4	.	-	-	-
NCCCC[C@@H]1NC(=O)[C@H](CCC(=O)O)NC(=O)c2cc([N+](=O)[O-])cc(I)c2SC[C@@H](C(=O)NCC(N)=O)NC1=O	-	-	118.6	-	-	-	-
Cc1ccc(S(=O)(=O)Nc2ccc3c(c2)C(=O)N([C@@H](C)CO)C[C@H](C)[C@@H](CN(C)Cc2ccc(C(=O)O)cc2)O3)cc1	-	-	-	-	.	.	.
O=C(NNc1ccccc1C(F)(F)F)c1sccc1Br	-	-	active	-	-	-	-
O=C(Nc1ccccc1C(F)(F)F)c1ccsc1	.	-	-	-	-	-	.
CCOC(=O)CNC(=O)c1nn(-c2ccc(OCC)cc2)c(=O)c2ccccc12	-	-	119.1	-	.	.	-
COc1cccc(C#Cc2cnc3c(c2)C(=O)N([C@H](C)CO)C[C@H](C)[C@H](CN(C)C(=O)C2CCOCC2)O3)c1	-	-	125.5	-	.	.	-
SMILES	miR-122 sensor	esBAF inh	Yeast UUG start-1	PglD inh	MITF TRPM1 HTS	Wnt bcat act	Yeast UUG start-2
C[C@@H]1CN([C@@H](C)CO)C(=O)c2cc(C#CCc3ccccc3)cnc2O[C@H]1CN(C)CC1CCCC1	-	-	167.3	-	.	.	-
Cc1noc(C)c1NC(=O)N(C)C[C@@H]1Oc2ncc(C#CC3CCCCC3)cc2C(=O)N([C@H](C)CO)C[C@H]1C	-	-	-	-	.	.	.
C[C@H]1CN([C@@H](C)CO)C(=O)c2cc(C#CCC3CCCC3)cnc2O[C@@H]1CN(C)C(=O)CC1CC1	-	-	120.7!	-	.	-	-
COc1cccc(C#Cc2cnc3c(c2)C(=O)N([C@@H](C)CO)C[C@H](C)[C@@H](CN(C)C(=O)C2CCOCC2)O3)c1	-	-	-	-	.	.	.
Cc1noc(C)c1NC(=O)N(C)C[C@H]1Oc2ncc(C#CC3CCCCC3)cc2C(=O)N([C@H](C)CO)C[C@@H]1C	-	-	12.4	-	.	.	-
CCNC(=O)C[C@H]1CC[C@@H]2[C@H](COc3ccc(NC(=O)Nc4cccc(F)c4)cc3C(=O)N2C)O1	-	-	-	-	.	.	.
C[C@@H]1CN([C@H](C)CO)C(=O)c2cc(C#CC3CCCCC3)cnc2O[C@@H]1CN(C)Cc1cccnc1	-	-	-	-	.	.	.
C[C@@H]1CN([C@H](C)CO)C(=O)c2cc(C#CC3CCCCC3)cnc2O[C@H]1CN(C)Cc1cccnc1	-	-	161.5!	-	.	-	-
COCC#Cc1ccc2c(c1)O[C@H](CN(C)C(=O)CN(C)C)[C@H](C)CN([C@@H](C)CO)S2(=O)=O	-	-	-	-	.	.	.
CCC1=C(OC(=O)c2ccccc2)C(C)(C)C(c2ccccc2)OC1=O (centres undefined)	-	-	105.4	-	-	.	-
O=C(Nc1ccc2c(c1)[C@H]1C[C@@H](CC(=O)N3CCCCC3)O[C@@H](CO)[C@H]1O2)c1ccc2c(c1)OCO2	-	-	-	-	.	.	.
O=C(CNC(=S)NC(=O)C1CCCCC1)c1ccccc1	-	-	522.6	-	87.0	-	-
COCC1=C2[C@@H](c3ccccc3)OB(O)C[C@@H]2[C@@H]2C(=O)N(Cc3ccccc3)C(=O)[C@@H]2C1	.	.	-	-	.	.	.
CCCC#Cc1ccc2c(c1)O[C@@H](CN(C)C(=O)NC(C)C)[C@@H](C)CN([C@@H](C)CO)S2(=O)=O	-	-	-	-	.	.	.
C[C@@H]1CN([C@@H](C)CO)S(=O)(=O)c2ccc(C#CC3CC3)cc2O[C@@H]1CN(C)Cc1cccnc1	-	-	-	-	.	.	.
C[C@H](CO)N1C[C@H](C)[C@H](CN(C)C(=O)C2CCOCC2)Oc2cc(C#Cc3ccncc3)ccc2S1(=O)=O	-	-	191.0	-	.	.	-
CNC[C@H]1Oc2cc(C#Cc3ccncc3)ccc2S(=O)(=O)N([C@H](C)CO)C[C@H]1C	.	-	128.8	-	.	.	-
CN(C)CC(=O)Nc1ccc2c(c1)[C@@H]1C[C@H](CC(=O)N(C)C)O[C@H](CO)[C@@H]1O2	-	-	-	-	.	.	.
COc1ccc(CN(C)C[C@@H]2OCCCC[C@@H](C)Oc3ccc(NC(=O)Nc4ccc(C(F)(F)F)cc4)cc3C(=O)N([C@@H](C)CO)C[C@H]2C)cc1	-	-	-	-	.	.	.
